Compound activity deposited in PubChem by several laboratories.
Shown are actives, neighbours in structure and some others; about 4.2% of the full set was active somewhere.
NALP1 inh – inhibitors of NALP1 inflammasome in yeast. S. cerevisiae NALP1/ASC/caspase-1 growth, X-gal OD620, 72 h. inhibition, % at 10 µM. actives 0.61% (n = 280,000). AID 2071; in the data active means inhibition mostly above about 24%, no sharp cut-off; inactive means mostly below about 32%
MC4R barr agon – human MC4R agonism via beta-arrestin. P32245. U2OS MC4R beta-arrestin complementation, luminescence; percent of melanotan II response, DMSO zero. activation, % at 8.9 µM. actives 0.98% (n = 360,000);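 active means activation above a per-plate cutoff, the mean activation of sample wells on that plate plus 3 SD, cut at about 8% in these data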
ALR inh – human ALR oxidase inhibition via reduced H2O2; purified ALR, DTT oxidation, H2O2 HRP-luminol luminescence; inhibition, % (concentration not given with the values); 290,000 tested, 3.8% active; AID 485317;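 active = mean and each replicate at 75% or more; inconclusive = only one of the two met; inactive = neither met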;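 also: stock transfer was 7.5 nL into about 7.5 µL; 0% = neutral wells and 100% = wells with inactivated enzyme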
MC4R antagonist – antagonists of human melanocortin 4 receptor (MC4R) | inhibition, % at 6.5 µM | MC4R-expressing cells, MTII-stimulated cAMP, LANCE TR-FRET | actives 0.48% (n = 360,000) | P32245;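 active means inhibition above its plate's cutoff, the mean of tested wells on that plate plus 3 SD, cut at about 29% in these data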
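System: U2OS cells stably expressing human melanocortin 4 receptor (MC4R). Reagent: Melanotan II challenge after compound preincubation. Doses: 6.5 µM. Times: 30-min compound, 1-h challenge, 1-h detection, room temperature. Measured by: TR-FRET with Eu-cAMP and labeled anti-cAMP, 671 nm. Replicates: singlicate.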
HDAC3 inh – inhibitors of human histone deacetylase 3 | O15379 | recombinant HDAC3, fluorogenic peptide/trypsin coupled, fluorescence | inhibition, % at 8.3 µM | actives 0.15% (n = 320,000) | AID 2718; in the data active means inhibition above about 26%, passing the limit was not always enough; inconclusive means no clear call, values can overlap the other calls
Yeast UUG start – yeast start codon fidelity modulation | S. cerevisiae UUG-firefly luciferase reporter, luminescence/redox ratio | activity score, % at 18.7 µM | hit rate 0.13% among 350,000 | AID 602363;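 active means replicate mean at a twofold rise or more, about +100% in these data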;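 further: firefly luciferase made from a UUG start codon reports start codon fidelity; reporter light over untreated wells divided by growth signal over untreated wells; some hits fall short of that in this replicate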
Each line names hits and unclear results; the compound was inactive in the other large screens.

COc1ccc(NC(=O)CSc2nc3c(c(-c4cccs4)c2C#N)CN(C)CC3)cc1OC	ALR inh 99.3
CN1CCc2nc(SCC(=O)Nc3ccc(Cl)cc3)c(C#N)cc2C1	ALR inh 99.5 (no result: NALP1 inh)
CCOC(=O)c1c(C#N)c(SCC(=O)Nc2ccc(OC)cc2)nc2c1CN(CC)CC2	ALR inh 99.3
Cc1ccc(S(=O)(=O)Nc2ccc3c(c2)C(=O)N([C@@H](C)CO)C[C@@H](C)[C@@H](CN(C)Cc2ccc(C(=O)O)cc2)O3)cc1	none (no result: NALP1 inh, MC4R barr agon, ALR inh, MC4R antagonist, HDAC3 inh)
COc1cccc(NC(=S)NNC(=O)c2c([N+](=O)[O-])c(C)nn2C)c1	none (no result: ALR inh, HDAC3 inh)
COc1cccc(NC(=S)NNC(=O)C(C)n2nc(C)c([N+](=O)[O-])c2C)c1 (stereo unspecified)	ALR inh 83.9
CCN1/C(=C\c2ccc3cc(C)ccc3[n+]2CC)Sc2cc(C)c(C)cc21	none (no result: ALR inh, HDAC3 inh)
CCN1/C(=C/c2ccc3cc(C)ccc3[n+]2CC)Sc2ccc3sccc3c21	MC4R barr agon 13.9 (no result: NALP1 inh, Yeast UUG start)
COc1ccc(/C=N/NC(=O)C(=O)N2CCCC2)cc1	none
COc1cc(/C=N/NC(=O)CC(=O)NC2CCCCC2)ccc1O	ALR inh 99.2
CN(C)c1ccc(/C=N/NC(=O)C(=O)N2CCCCCC2)cc1	ALR inh 98.9
COC(=O)c1ccc(/C=N/NC(=O)CC(=O)NC2CCCCC2)cc1	none
COc1cc(/C=N/NC(=O)C(=O)N2CCCCCC2)ccc1O	ALR inh 99.0
COc1ccc(C(=O)n2nnc3ccccc32)cc1OC	HDAC3 inh 69.6 (no result: ALR inh, Yeast UUG start)
O=C(c1ccc2c(c1)OCO2)n1nnc2ccccc21	none (no result: MC4R barr agon, ALR inh, MC4R antagonist, HDAC3 inh, Yeast UUG start)
COc1ccc(C(=O)n2nnc3ccccc32)cc1Br	HDAC3 inh 95.7
Cc1ccc(S(=O)(=O)N(C)C[C@@H]2Oc3ccc(NC(=O)C4CCCCC4)cc3CC(=O)N([C@@H](C)CO)C[C@@H]2C)cc1	none (no result: NALP1 inh, MC4R barr agon, ALR inh, MC4R antagonist, HDAC3 inh)
Oc1ccc2ccc3[nH]cnc3c2c1	ALR inh 100.0 (no result: HDAC3 inh)
Cc1csc(=Nc2cccnc2)n1CC1CCCCC1	ALR inh 98.6 (no result: Yeast UUG start)
COCCCn1c(C)csc1=Nc1cccnc1	none (no result: Yeast UUG start)
Nc1nc2ccc([N+](=O)[O-])cc2[nH]1	none
O=[N+]([O-])c1ccc2nc(C3CCCCC3)[nH]c2c1	ALR inh 97.2
O=[N+]([O-])c1ccc2nc(CCCc3nc4ccc([N+](=O)[O-])cc4[nH]3)[nH]c2c1	NALP1 inh 32.1 (no result: Yeast UUG start)
CCCc1cc(=O)[nH]c(SCc2nc3ccc([N+](=O)[O-])cc3[nH]2)n1	ALR inh 98.7 (no result: Yeast UUG start)
Cc1cc(=O)[nH]c(SCc2nc3ccc([N+](=O)[O-])cc3[nH]2)n1	HDAC3 inh inconclusive (no result: Yeast UUG start)
O=C(Nc1ccc(O)cc1)c1cc2n(n1)C(C(F)(F)F)CC(c1ccco1)N2 (stereo unspecified)	ALR inh 99.2
Cc1ccc(S(=O)(=O)N(C)c2ccc(OCC(=O)Nc3nc4c(ccc5ccccc54)s3)cc2)cc1	ALR inh 83.8 (no result: Yeast UUG start)
Cc1noc(C)c1NC(=O)N(C)C[C@@H]1Oc2ccc(NC(=O)NC3CCCCC3)cc2C(=O)N([C@@H](C)CO)C[C@@H]1C	none (no result: NALP1 inh, MC4R barr agon, ALR inh, MC4R antagonist, HDAC3 inh)
COc1ccc(NC(=O)Nc2ccc3c(c2)C(=O)N([C@H](C)CO)C[C@@H](C)[C@@H](CN(C)C(=O)c2ccccc2)OCCCC[C@H](C)O3)cc1	none (no result: NALP1 inh, MC4R barr agon, ALR inh, MC4R antagonist, HDAC3 inh)
CN(C)/C(Cn1cncn1)=C1/N=C(c2ccccc2)OC1=O	none (no result: Yeast UUG start)
CN1CCN(C/C(=C2/N=C(c3ccccc3)OC2=O)N(C)C)CC1	ALR inh 97.8
O=C(Nc1ccccc1)c1sc(Cl)nc1-c1ccccc1	ALR inh 94.2
O=C(OCn1ncc(Br)c(Br)c1=O)c1ccc(F)cc1	MC4R antagonist 47.1
Cc1noc(C)c1NC(=O)Nc1ccc2c(c1)C(=O)N([C@H](C)CO)C[C@@H](C)[C@@H](CN(C)C(=O)Nc1ccc(C(F)(F)F)cc1)O2	none (no result: NALP1 inh, MC4R barr agon, ALR inh, MC4R antagonist, HDAC3 inh)
COc1ccc(NC(=O)CC2Nc3cccc4cccc(c34)NC2=O)cc1 (stereo unspecified)	ALR inh 99.7 (no result: Yeast UUG start)
O=C(CC1SC(=O)NC1=O)Nc1ccc(Cl)cc1 (stereo unspecified)	none
O=C(CC1NC(=O)NC1=O)Nc1ccc(Cl)cc1 (stereo unspecified)	NALP1 inh 38.0
COc1ccc(S(=O)(=O)N(C)C[C@@H]2Oc3ccc(NS(=O)(=O)c4cccs4)cc3C(=O)N([C@H](C)CO)C[C@H]2C)cc1	none (no result: NALP1 inh, MC4R barr agon, ALR inh, MC4R antagonist, HDAC3 inh)
O=C(NCC1CCCO1)c1cc([N+](=O)[O-])ccc1Cl (stereo unspecified)	ALR inh 95.4
CC1(C)c2ccccc2-c2nc3ccccc3cc2C1N1CCOCC1 (stereo unspecified)	none (no result: NALP1 inh, ALR inh, HDAC3 inh, Yeast UUG start)
CC1(C)c2cc(O)ccc2OC1N1CCOCC1 (stereo unspecified)	ALR inh 98.9
O=C(C1CCCCC1)N1C[C@@H]2[C@H](c3ccccc31)[C@H](CO)N2Cc1ccccc1Cl	none (no result: NALP1 inh, MC4R barr agon, ALR inh, MC4R antagonist, HDAC3 inh)
COc1cc(O)c(C(CC(=O)N2CCCC2)c2ccc(N(C)C)cc2)c(OC)c1 (stereo unspecified)	ALR inh 98.2
COc1cc(O)c(C(CCN2CCCCC2)c2ccc(N(C)C)cc2)c(OC)c1 (stereo unspecified)	ALR inh 98.3
COc1ccc(C(CC(=O)N2CCCCC2)c2c(O)cc(OC)cc2OC)cc1 (stereo unspecified)	none (no result: ALR inh)
CN1C(=O)c2cc(NC(=O)C3CCCC3)ccc2OC[C@@H]2O[C@@H](CC(=O)NCC3CC3)CC[C@@H]21	none (no result: NALP1 inh, MC4R barr agon, ALR inh, MC4R antagonist, HDAC3 inh)
CC1CCCCC12NC(=O)N(CC(=O)Nc1ccccc1-c1ccccc1)C2=O (stereo unspecified)	NALP1 inh 37.1 (no result: Yeast UUG start)
CCCC(=O)Nc1ccc2c(c1)OC[C@H](C)N(Cc1nccs1)C[C@@H](C)[C@@H](OC)CN(C)C2=O	none (no result: NALP1 inh, MC4R barr agon, ALR inh, MC4R antagonist, HDAC3 inh)
Cc1cc(C)cc(N(C(=O)c2csnn2)C(C(=O)NC(C)(C)C)c2cccnc2)c1 (stereo unspecified)	NALP1 inh 23.1 (no result: HDAC3 inh, Yeast UUG start)
Cc1cccc(N(C(=O)c2csnn2)C(C(=O)NC(C)(C)C)c2cccnc2)c1 (stereo unspecified)	none (no result: HDAC3 inh, Yeast UUG start)
CS(=O)(=O)Nc1ccc2c(c1)[C@@H]1C[C@H](CC(=O)N3CCOCC3)O[C@@H](CO)[C@@H]1O2	none (no result: NALP1 inh, MC4R barr agon, ALR inh, MC4R antagonist, HDAC3 inh)
Cc1noc(C)c1S(=O)(=O)N(C)C[C@H]1OCCCC[C@H](C)Oc2ccc(NC(=O)Cc3ccccc3)cc2C(=O)N([C@@H](C)CO)C[C@H]1C	none (no result: NALP1 inh, MC4R barr agon, ALR inh, MC4R antagonist, HDAC3 inh)
N#C/C(=C/c1cc(Cl)c(O)c(Cl)c1)C(=O)N1CCCCC1	HDAC3 inh inconclusive
N#C/C(=C\c1ccc(O)c(O)c1)C(=O)c1ccc(O)c(O)c1	ALR inh 99.7 (no result: NALP1 inh)
N#C/C(=C\c1ccc(O)c(O)c1)C(=O)N1CCCC1	ALR inh 99.6 (no result: Yeast UUG start)
COc1cc(/C=C(\C#N)C(=O)N2CCCCC2)ccc1O	ALR inh 98.9
